Experimental findings from patent publication US5686423A, “Di-and tri-peptide mimetic compounds for Parkinson's disease” (Department of Health, the Executive Yuan, Republic of China, priority 1996, dated 1997) are described below.

The nature of data set [1]: Single dose oral and intra-artery bioavailability study in rabbits. The conditions noted are these: 10 mg/Kg, six rabbits, mean ± s.e.m.
For data set [2] the following is noted: rat jejunal perfusion, perfusate 0.1 mM, blood drawn after 90 min perfusion.

D-phenylglycine-L-dopa [compound 1a]: the Cmax (in general, the highest concentration seen after dosing) in data set [1] (intra-artery (i.a.)) was found to be 43220 ± 8410 ng/mL. In data set [1] (oral), the AUC (usually the area under the concentration-time curve, a measure of exposure) was found to be 484.24 ± 91.14 µg·min/mL; the Cmax is 8290 ± 3390 ng/mL; the t1/2 came out at 61 ± 23 min; the tmax worked out at 13 ± 5 min.

For D-phenylglycine-L-proline-L-dopa [2c], the “plasma conc. (mean ± s.e.m)” value in data set [2] turned out to be 84.66 ± 6.00.

Regarding “D-p-hydroxyphenylglycine-L-proline-L-dopa [compound 2d]”, in data set [2], the “plasma conc. (mean ± s.e.m)” value is listed as 4.37 ± 0.45.
